The list shows a part of the results, in another mix than the full data. Activity calls are given as the source filed them. Calls come from the whole dose curve; as a rule, active = well fitted inhibition curve with a large enough effect; inconclusive = small, poorly fitted or top-dose-only effect, or effect the other way; inactive = flat fitted curve, though single readings scatter.

The chains behind the UniProt entries cited, without tags or fusion partners.
UniProt O15648, whole entry: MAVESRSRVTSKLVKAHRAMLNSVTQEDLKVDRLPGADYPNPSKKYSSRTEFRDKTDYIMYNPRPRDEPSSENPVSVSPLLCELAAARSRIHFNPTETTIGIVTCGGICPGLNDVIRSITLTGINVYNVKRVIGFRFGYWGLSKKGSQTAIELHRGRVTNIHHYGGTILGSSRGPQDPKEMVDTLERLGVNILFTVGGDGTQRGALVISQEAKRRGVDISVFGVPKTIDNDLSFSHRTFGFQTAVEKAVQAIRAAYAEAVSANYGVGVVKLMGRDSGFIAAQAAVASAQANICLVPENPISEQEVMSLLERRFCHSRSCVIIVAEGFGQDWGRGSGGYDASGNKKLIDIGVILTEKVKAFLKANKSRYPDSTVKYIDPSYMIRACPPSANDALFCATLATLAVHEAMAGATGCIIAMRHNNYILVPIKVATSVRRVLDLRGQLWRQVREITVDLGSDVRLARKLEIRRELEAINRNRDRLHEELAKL

The target of this assay is ATP-dependent 6-phosphofructokinase (Trypanosoma brucei brucei) (UniProt O15648). As to the kind of experiment: qHTS Assay to Find Inhibitors of T. brucei phosphofructokinase.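 Note: 0% = uninhibited 1x PFK enzyme wells and -100% = no-enzyme wells; nearly all actives have a fitted effect of over 60% in size.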 The following applies: T. brucei PFK, ADP-Glo luminescence; at 57.5 µM (top of the series). The text has this:
NIH Molecular Libraries Probe Production Network [MLPCN] NIH Chemical Genomics Center [NCGC] Grant: 1 R03 MH092153-01 PI Name: Malcolm Walkinshaw, University of Edinburgh NCGC Assay Overview: Various species of the protozoan family Trypanosomatidae are responsible for a range of serious human diseases in tropical and subtropical areas of the world. […] Many of the disorders caused by trypanosomatids are fatal if left untreated, but most currently used drugs are inefficient and toxic. […] A luminescence-based assay for T. brucei PFK activity has been developed which uses luciferase to detect production of ADP. […] To directly measure the ADP product of the PFK reaction, we used the ADP-Glo detection kit (Promega), which utilizes two separate reactions to 1) deplete all remaining uncatalyzed ATP and 2) convert all remaining ADP to ATP, which is then detected through a traditional luciferase-coupled reaction. […]
NCGC Assay Protocol Summary: NCGC Assay Protocol Summary: Substrate buffer was dispensed into white, solid 1536-well plates at 3uL/well in 0.1M triethanolamine (TEA) buffer, pH 8.0, containing final concentrations of 5 mM MgCl2, 0.01% Tween20, 0.5 mM fructose-6-phosphate (F6P) and 0.1mM ATP. […] The plates were measured on a ViewLux plate reader for luminescent signal using a clear filter with a one second exposure. The %Activity was determined from the corrected luminescence values. […]
`CCC(=O)N(c1ccccc1)C1(COC)CCN(CCn2nnn(CC)c2=O)CC1`: the activity, negative = inhibition is inactive: 0%.
With `CCC(=O)N(c1ccccc1)C1(COC)CCN(CCc2cccs2)CC1`, the activity, negative = inhibition was inactive: -1.57%.
